Data as given in patent US20240123073A1, “NOVEL RIPK1 KINASE TARGETING PROTACS AND METHODS OF USE THEREOF” (Baylor College of Medicine, priority 2020, published 2024).

Chains of the proteins cited; added tags and fusions are not shown.
UniProt Q13546, whole entry: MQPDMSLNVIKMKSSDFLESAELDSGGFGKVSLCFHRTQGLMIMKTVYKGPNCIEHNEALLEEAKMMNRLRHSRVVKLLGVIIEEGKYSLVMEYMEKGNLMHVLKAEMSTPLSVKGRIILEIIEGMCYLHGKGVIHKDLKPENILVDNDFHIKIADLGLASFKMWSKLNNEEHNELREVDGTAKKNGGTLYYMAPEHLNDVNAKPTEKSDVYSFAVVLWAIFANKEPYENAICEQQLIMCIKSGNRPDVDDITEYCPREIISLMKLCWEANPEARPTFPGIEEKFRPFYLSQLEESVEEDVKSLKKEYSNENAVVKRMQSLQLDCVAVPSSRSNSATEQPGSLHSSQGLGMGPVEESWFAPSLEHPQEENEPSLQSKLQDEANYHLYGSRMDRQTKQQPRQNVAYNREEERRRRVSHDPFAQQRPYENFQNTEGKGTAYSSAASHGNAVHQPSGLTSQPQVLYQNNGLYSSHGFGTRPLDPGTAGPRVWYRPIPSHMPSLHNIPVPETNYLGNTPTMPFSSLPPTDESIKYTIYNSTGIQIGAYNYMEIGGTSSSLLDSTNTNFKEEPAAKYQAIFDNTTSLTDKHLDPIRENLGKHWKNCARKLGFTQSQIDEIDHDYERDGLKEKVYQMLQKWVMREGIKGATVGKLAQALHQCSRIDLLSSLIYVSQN

Each compound was assayed against RIPK1 (Homo sapiens, UniProt Q13546) (assay: RIPK1 degradation Western Blot assay). Details: read-out: Degradation Activity (DC50, concentration at which 50% of RIPK1 kinase has been degraded), human cells, 24 h incubation at 37° C.
Type: cell-based

SMILES | DC50
Cc1ncsc1-c1ccc([C@H](C)NC(=O)[C@@H]2C[C@@H](O)CN2C(=O)[C@@H](NC(=O)CCCCN2CC3(CC(Oc4ccc(C(=O)NCCCn5cc(-c6ccc7c(c6)CCN7C(=O)Cc6cccc(OC(F)(F)F)c6)c6c(N)ncnc65)cn4)C3)C2)C(C)(C)C)cc1 | < 1000 nM
Nc1ncnc2c1c(-c1ccc3c(c1)CCN3C(=O)Cc1cccc(OC(F)(F)F)c1)cn2CCCNC(=O)CCCCCCCCNc1cc2c(cc1F)C(=O)N(C1CCC(=O)NC1=O)C2=O (stereo not drawn) | < 1000 nM
Nc1ncnc2c1c(-c1ccc3c(c1)CCN3C(=O)Cc1cccc(OC(F)(F)F)c1)cn2CCCNC(=O)CCCCCCCCNC(=O)CNc1cccc2c1C(=O)N(C1CCC(=O)NC1=O)C2=O (stereo not drawn) | 1000 to 10000 nM
Nc1ncnc2c1c(-c1ccc3c(c1)CCN3C(=O)Cc1cccc(OC(F)(F)F)c1)cn2CCCNC(=O)CCCCCNc1cccc2c1C(=O)N(C1CCC(=O)NC1=O)C2=O (stereo not drawn) | > 10000 nM
Nc1ncnc2c1c(-c1ccc3c(c1)CCN3C(=O)Cc1cccc(OC(F)(F)F)c1)cn2CCCNC(=O)CCCCCCCCCCNC(=O)COc1cccc(C2CCC(=O)NC2=O)c1 (stereo not drawn) | 1000 to 10000 nM
O=C1CCC(N2C(=O)c3cccc(NCCOCCOCCOCCOCCNC(=O)c4ccc(-c5cc(N6CCC(C(=O)N7N=CCC7c7ccccc7)CC6)ncn5)cc4)c3C2=O)C(=O)N1 (stereo not drawn) | > 10000 nM
Nc1ncnc2c1c(-c1ccc3c(c1)CCN3C(=O)Cc1cccc(OC(F)(F)F)c1)cn2CCCCCCCNC(=O)CCCCCCCCCCNc1cccc2c1C(=O)N(C1CCC(=O)NC1=O)C2=O (stereo not drawn) | < 1000 nM
Cc1ncsc1-c1ccc([C@H](C)NC(=O)[C@@H]2C[C@@H](O)CN2C(=O)[C@@H](NC(=O)CCCCCCCCC(=O)NCCCn2cc(-c3ccc4c(c3)CCN4C(=O)Cc3cccc(OC(F)(F)F)c3)c3c(N)ncnc32)C(C)(C)C)cc1 | < 1000 nM
Cc1ncsc1-c1ccc([C@H](C)NC(=O)[C@@H]2C[C@@H](O)CN2C(=O)[C@@H](NC(=O)CCOCCOCCOCCOCCOCCn2cc(-c3ccc4c(c3)CCN4C(=O)Cc3cccc(OC(F)(F)F)c3)c3c(N)ncnc32)C(C)(C)C)cc1 | < 1000 nM
Cn1c(=O)n(C2CCC(=O)NC2=O)c2ccc(CCC(=O)NCCCCCCCCC(=O)NCCCn3cc(-c4ccc5c(c4)CCN5C(=O)Cc4cccc(OC(F)(F)F)c4)c4c(N)ncnc43)cc21 (stereo not drawn) | < 1000 nM
Nc1ncnc2c1c(-c1ccc3c(c1)CCN3C(=O)Cc1cccc(OC(F)(F)F)c1)cn2CCCNC(=O)CCCCCCCCNc1cccc2c1C(=O)N(C1CCC(=O)NC1=O)C2=O (stereo not drawn) | < 1000 nM
Cc1ncsc1-c1ccc([C@H](C)NC(=O)[C@@H]2C[C@@H](O)CN2C(=O)[C@@H](NC(=O)CCOCCOCCOCCC(=O)NCCCn2cc(-c3ccc4c(c3)CCN4C(=O)Cc3cccc(OC(F)(F)F)c3)c3c(N)ncnc32)C(C)(C)C)cc1 | < 1000 nM
O=C(NCCOCCOCCOCCC(=O)N1CCC(C(=O)N2N=CCC2c2ccccc2)CC1)[C@@H]1NC2(CCCCC2)[C@@]2(C(=O)Nc3cc(Cl)ccc32)[C@H]1c1cccc(Cl)c1F (stereo partly drawn) | 1000 to 10000 nM
Nc1ncnc2c1c(-c1ccc3c(c1)CCN3C(=O)Cc1cccc(OC(F)(F)F)c1)cn2CCCNC(=O)CCCCCCNC(=O)CN1CCC(c2ccc(NC3CCC(=O)NC3=O)cc2)CC1 (stereo not drawn) | < 1000 nM
Nc1ncnc2c1c(-c1ccc3c(c1)CCN3C(=O)Cc1cccc(OC(F)(F)F)c1)cn2CCCNC(=O)CCCCCCCCCCNC(=O)C1CCN(c2ccc(C(=O)NC3CCC(=O)NC3=O)cn2)CC1 (stereo not drawn) | 1000 to 10000 nM
Cc1ncsc1-c1ccc([C@H](C)NC(=O)[C@@H]2C[C@@H](O)CN2C(=O)[C@@H](NC(=O)CCCCCCCCCCC(=O)NCCCn2cc(-c3ccc4c(c3)CCN4C(=O)Cc3cccc(OC(F)(F)F)c3)c3c(N)ncnc32)C(C)(C)C)cc1 | < 1000 nM
Nc1ncnc2c1c(-c1ccc3c(c1)CCN3C(=O)Cc1cccc(OC(F)(F)F)c1)cn2CCCNC(=O)CCCCCCCCCCNC(=O)CNc1ccc(C(=O)NC2CCC(=O)NC2=O)nc1 (stereo not drawn) | 1000 to 10000 nM
Nc1ncnc2c1c(-c1ccc3c(c1)CCN3C(=O)Cc1cccc(OC(F)(F)F)c1)cn2CCCNC(=O)CCCCCCCCNC(=O)COc1ccc(C2CCC(=O)NC2=O)cc1 (stereo not drawn) | > 10000 nM
